Assay results taken from patent US7977481B2, “Pyrimidinyl-thiophene kinase modulators” (SGX Pharmaceuticals, Inc., priority 2005, dated 2011).

By UniProt entry, the sequences of proteins in these tests, tags left out.
UniProt O14965, whole entry: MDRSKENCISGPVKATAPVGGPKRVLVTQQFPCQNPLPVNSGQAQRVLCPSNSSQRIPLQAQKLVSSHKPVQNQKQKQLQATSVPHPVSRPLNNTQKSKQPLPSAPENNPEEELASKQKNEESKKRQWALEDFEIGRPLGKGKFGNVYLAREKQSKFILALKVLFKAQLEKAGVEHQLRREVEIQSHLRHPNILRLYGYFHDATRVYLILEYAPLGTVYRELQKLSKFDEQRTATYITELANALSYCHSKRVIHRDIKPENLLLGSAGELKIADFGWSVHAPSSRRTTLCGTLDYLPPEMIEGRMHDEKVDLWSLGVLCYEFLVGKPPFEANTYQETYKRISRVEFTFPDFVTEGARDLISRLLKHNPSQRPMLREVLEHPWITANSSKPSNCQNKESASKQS

Target: Autophosphorylated AurA kinase (Homo sapiens, UniProt O14965)
Assay: AurA Luminescence-Based ATP Depletion Enzyme Assay
Settings: read-out: AurA enzyme IC50; 10 μM ATP
Method: AurA Luminescence-Based ATP Depletion Enzyme Assay
Materials: Kemptide peptide substrate=LRRASLG (Biopeptide, San Diego, Calif.), ATP (Sigma Cat#A-3377, FW=551), HEPES buffer, pH 7.5, 10% Brij 35 (Calbiochem Cat#203728), MgCl2, Staurosporine (Streptomyces sp. Sigma Cat#85660-1MG), white Costar 384-well flat-bottom plate (VWR Cat#29444-088), Autophosphorylated AurA kinase (see below), Kinase-Glo™ (Promega Cat#V6712).
Stock Solutions: 10 mM Kemptide peptide (7.72 mg/ml in water), stored at −20° C.; 100 mM HEPES buffer+0.015% Brij 35, pH 7.5 (5 ml 1M HEPES stock+75 μL 10% Brij 35+45 ml miliQH2O); 10 mM ATP (5.51 mg/ml in dH2O) stored at −20° C. (diluted 50 μl into total of 10 ml miliQH2O daily=50 μM ATP working stock); 100 mM MgCl2; 200 μM Staurosporine, 2× Kinase-Glo™ reagent (made fresh or stored at −20° C.). […]
Standard Assay Setup for 384-well format (20 μl kinase reaction, 40 μl detection reaction): 10 mM MgCl2; 0.2 mM Kemptide peptide; 1 μl test compound (in DMSO); 0.3 μg/ml Autophosphorylated AurA kinase; 10 μM ATP; 100 mM HEPES+0.015% Brij buffer. […] Kinase reactions were incubated at 21° C. for 45 min, then 20 μl of Kinase-Glo™ reagent were added to each well to quench the kinase reaction and initiate the luminescence reaction. After a 20 min incubation at 21° C., the luminescence was detected in a plate-reading luminometer. […]

**Q.** Which IC50 does the source give for COc1ccc(Nc2nccc(-c3ccc(S(=O)(=O)N4CC=CC4)s3)n2)cc1OC here?
**A.** < 0.1 µM
